Among the data in patent US6063766A, “Transport protein which effects the transport of cationic xenobiotics and/or pharmaceuticals, DNA sequences encoding it and their use” (priority 1994, dated 2000) are Ki values, retold here.

In series [1] the target is T1, OCT1 transport protein (Rattus norvegicus, UniProt Q63089).
T1 sequence (Q63089 1-556): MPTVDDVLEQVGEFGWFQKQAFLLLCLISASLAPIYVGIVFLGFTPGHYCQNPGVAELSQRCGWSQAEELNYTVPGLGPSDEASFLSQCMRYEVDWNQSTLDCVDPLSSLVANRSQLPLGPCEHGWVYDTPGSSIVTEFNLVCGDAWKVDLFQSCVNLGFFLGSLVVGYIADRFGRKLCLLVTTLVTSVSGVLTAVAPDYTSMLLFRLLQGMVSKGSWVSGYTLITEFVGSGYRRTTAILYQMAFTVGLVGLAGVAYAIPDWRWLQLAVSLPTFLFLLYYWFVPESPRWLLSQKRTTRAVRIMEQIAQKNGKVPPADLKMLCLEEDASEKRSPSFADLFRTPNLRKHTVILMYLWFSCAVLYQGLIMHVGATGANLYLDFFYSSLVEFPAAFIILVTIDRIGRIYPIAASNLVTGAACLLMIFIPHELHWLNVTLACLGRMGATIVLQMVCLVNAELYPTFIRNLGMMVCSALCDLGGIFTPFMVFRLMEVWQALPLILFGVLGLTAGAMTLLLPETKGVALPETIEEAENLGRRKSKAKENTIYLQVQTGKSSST
Conditions: Ki for inhibition of OCT1-elicited ^14 C-TEA uptake (mM, text).

Series [2] concerns the target T1, OCT1 transport protein. The conditions noted are these: xenopus oocytes expressing oct1.
For series [3], the target named is MPP uptake in hepatocytes. The conditions noted are these: cultured hepatocytes; cited from earlier work.

Read-outs that look alike come from different tables or passages of the source.

`C[N+](C)(C)C` [Tetramethylammonium]: the Ki (as a rule, the equilibrium dissociation constant of an inhibitor or competing ligand from its target) on OCT1 transport protein [1] was roughly 1 mM; at OCT1 transport protein [2], 1000 µM.

In the case of `C=C[C@H]1C[N@@]2CC[C@H]1C[C@H]2[C@H](O)c1ccnc2ccc(OC)cc12` [Quinine], the Ki in series [3] was 0.8 µM.
